Data as given in PMC12291137.

Target: substrate B (SpyCatcher-M13-LPETG-SpyTag(DA)), with the original M13 (M13-1)

Substance “catalyst C (CaM-SrtA), fusion of calmodulin and sortase A” has a yield of product P at 8 h with 0.1 equiv of C, against ∼10% without catalyst (SDS-PAGE densitometry) of 56%.
